Tests used:
[1] = system: Liver Response-Associated Features (LRFs) in serum/plasma (blood); assay: Proteome analysis (2D electrophoresis, Reference Protocol) of depleted serum/plasma of drug-treated vs control animals: relative abundance of LRFs
[2] = system: Liver Response-Associated Features (LRFs) in liver tissue; assay: Proteome analysis (2D electrophoresis, Reference Protocol) of liver tissue of drug-treated vs control animals: relative abundance of LRFs
Male Sprague-Dawley rats = assay: ANIT rat toxicity study (clinical observations, body weight, clinical laboratory measurements, organ weights, histopathology); conditions: final necropsy, 120 hours post dose; due to decreased terminal body weights

**Q.** Which “Fold Change LRF-161” value ([1]; Early, P 0.0075) does the source give for `S=C=Nc1cccc2ccccc12` [ANIT, Alpha-naphthylisothiocyanate] here?
**A.** Its value is −4.38 fold.

**Q.** And the “Fold Change LRF-169” value ([1]; Early, P 0.0075)?
**A.** Its value is −8.33 fold.

**Q.** What about the “Fold Change LRF-181” value ([1]; Early, P 0.0075) of the same compound?
**A.** The value was −6.05 fold.

**Q.** And the “Fold Change LRF-160” value ([1]; Early, P 0.0097)?
**A.** The value was −2.62 fold.

**Q.** And the “Fold Change LRF-367” value ([1]; Late, P 0.0073)?
**A.** Its value is 6.89 fold.

**Q.** What about the “Fold Change LRF-305” value ([1]; Middle, P 0.0073) of the same compound?
**A.** The value was 6.03 fold.

**Q.** And the “Fold Change LRF-298” value ([1]; Middle, P 0.0075)?
**A.** Its value is 6.40 fold.

**Q.** What about the “Fold Change LRF-399” value ([2]; Early, Middle, P 0.0367) of the same compound?
**A.** Its value is 1.82 fold.

**Q.** And the “Fold Change LRF-111” value ([2]; Late, P 0.0200)?
**A.** The value was 1.41 fold.

**Q.** And the “Fold Change LRF-410” value ([2]; Middle, Late, P 0.0345)?
**A.** The value was 1.31 fold.

**Q.** And the “Fold Change LRF-64” value ([2]; Middle, P 0.0075)?
**A.** Its value is 5.37 fold.

**Q.** And the “Fold Change LRF-72” value ([2]; Middle, P 0.0117)?
**A.** The value was 1.90 fold.

**Q.** And the Relative liver weight (Male Sprague-Dawley rats)?
**A.** The Relative liver weight was “remained increased”.
